Experimental findings from ChEMBL document CHEMBL3351542, “Nonpeptide small molecule agonist and antagonist original leads for neuropeptide FF1 and FF2 receptors” (J Med Chem, 2014) are described below.

Structures are written as SMILES. The source made the active and inactive calls. The rule behind the calls is not given here.

The species entered for experiment [1] is Homo sapiens. Put plainly: Selectivity ratio of Ki for human KOR to Ki for human NPFF1 receptor.
The test system of experiment [2] is Mus musculus. Put plainly: Antihyperalgesic effect in C57BL/6J mouse assessed as reversal of NPFF-inducced effect at 10 nmol, icv by 48 degC warm water tail withdrawal assay relative to vehicle-treated control.
Experiment [3] relates to Mus musculus. Kind of experiment: Antihyperalgesic effect in C57BL/6J mouse assessed as reversal of NPFF-inducced effect at 10 nmol, icv administered 20 mins prior to NPFF challenge by 48 degC warm water tail withdrawal assay relative to vehicle-treated control.
Experiment [4] is filed under the species Homo sapiens. Put plainly: Selectivity ratio of Ki for human NPFF1 receptor to Ki for human NPFF2 receptor.
The species named for experiment [5] is Homo sapiens. Put plainly: Selectivity ratio of Ki for human KOR to Ki for human NPFF2 receptor.
The test system of experiment [6] is Mus musculus. Put plainly: Antihyperalgesic effect in C57BL/6J mouse assessed as reversal of NPFF-inducced effect at 30 nmol, icv administered 20 mins prior to NPFF challenge by 48 degC warm water tail withdrawal assay relative to vehicle-treated control.

Regarding `COc1cc(NC2(CNC(=O)CNC(=N)N)CCN(Cc3ccccc3)CC2)cc(OC)c1`, the Ratio Ki in experiment [1] was determined as 7.

Regarding `CC(=N)NCCC[C@H](NC(=O)C12CC3CC(CC(C3)C1)C2)C(=O)N[C@@H](Cc1ccccc1)C(N)=O`, the outcome in experiment [2] was inactive. Moreover, in experiment [3], the result was Active.

Consider `N=C(N)NCC(=O)NCC1(Cc2ccccc2)CCN(Cc2ccccc2)CC1`, for which the Ratio Ki in experiment [4] was 5; in experiment [5] it was 2.

`N=C(N)NCCNC(=O)C1(Nc2ccccc2)CCN(Cc2ccccc2)CC1`: the result in experiment [6] was Active. In addition, in experiment [1], the Ratio Ki is greater than 18.

For the compound `N=C(N)NCC(=O)NCC1(Nc2cccc3ccccc23)CCN(Cc2ccccc2)CC1`, the Ratio Ki in experiment [1] amounted to 7.
